These are literature values, as cited in article PMC11323006, “Designing Coiled Coils for Heterochiral Complexation to Enhance Binding and Enzymatic Stability” (Biomacromolecules, 2024).

This data set has as its system protease. Conditions: L-form of the peptide alone; cited from earlier work.

As to Ac-(FKFE)2-NH2, the “degradation upon incubation with protease” value was “degrades within a day”.
